CycPeptMPDB entries from one study

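The data file gives no further conditions (lipid, pH, time, direction or concentration), and values from different papers need not be comparable. Other peptides of the study may be missing here. Entries at the database's floor value (log10 P of -10) are not listed.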

PAMPA is the parallel artificial membrane permeability assay, which has no cells and reads passive diffusion.
Permeability is given as log10 of P in cm/s; higher (less negative) is more permeable.

compound	PAMPA (log10 cm/s)
CCCC[C@@H]1NC(=O)[C@H](CC(C)C)N(C)C(=O)CN(CCCN2CCCC2=O)C(=O)[C@H](CC(C)C)NC(=O)CN(CCN2CCOCC2)C(=O)[C@H]2CCCN2C1=O	-7.77
CCCC[C@@H]1NC(=O)[C@H](CC(C)C)N(C)C(=O)CN(CCCN2CCCC2=O)C(=O)[C@H](CC(C)C)NC(=O)CN(CCCCc2ccccc2)C(=O)[C@H]2CCCN2C1=O	-5.90
CCCC[C@@H]1NC(=O)[C@H](CC(C)C)N(C)C(=O)CN(CC2CCOCC2)C(=O)[C@H](Cc2ccc3ccccc3c2)NC(=O)CN(Cc2cc(CC(C)C)on2)C(=O)[C@H]2CCCN2C1=O	-6.64
CCCC[C@@H]1NC(=O)[C@H](CC(C)C)N(C)C(=O)CN(CCCN2CCCC2=O)C(=O)[C@H](C)NC(=O)CN(Cc2ccccc2Cn2cccn2)C(=O)[C@H]2CCCN2C1=O	-7.45
CCCC[C@@H]1NC(=O)[C@H](CC(C)C)N(C)C(=O)CN(CCCc2cnn(C)c2)C(=O)[C@H](C)NC(=O)CN(Cc2ccc(Cl)cc2)C(=O)[C@H]2CCCN2C1=O	-5.56
CCCC[C@@H]1NC(=O)[C@H](CC(C)C)N(C)C(=O)CN(CC2CCCCC2)C(=O)[C@H](CC(C)C)NC(=O)CN(CCN2CCOCC2)C(=O)[C@H]2CCCN2C1=O	-5.18
CCCC[C@@H]1NC(=O)[C@H](CC(C)C)N(C)C(=O)CN(Cc2ccccc2)C(=O)[C@H](Cc2ccc3ccccc3c2)NC(=O)CN(Cc2cc(CC(C)C)on2)C(=O)[C@H]2CCCN2C1=O	-7.88
CCCC[C@@H]1NC(=O)[C@H](CC(C)C)N(C)C(=O)CN(CC2CCOCC2)C(=O)[C@H](C)NC(=O)CN(Cc2ccc(Cl)cc2)C(=O)[C@H]2CCCN2C1=O	-5.39
CCCC[C@@H]1NC(=O)[C@H](CC(C)C)N(C)C(=O)CN(CC2CCCCC2)C(=O)[C@H](Cc2ccccc2)NC(=O)CN(CC(C)C)C(=O)[C@H]2CCCN2C1=O	-6.82
CCCC[C@@H]1NC(=O)[C@H](CC(C)C)N(C)C(=O)CN(CCOC)C(=O)[C@H](CC(C)C)NC(=O)CN(CCN2CCOCC2)C(=O)[C@H]2CCCN2C1=O	-6.64
CCCC[C@@H]1NC(=O)[C@H](CC(C)C)N(C)C(=O)CN(CC2CCCCC2)C(=O)[C@H](CC(C)C)NC(=O)CN(Cc2ccc(Cl)cc2)C(=O)[C@H]2CCCN2C1=O	-7.10
CCCC[C@@H]1NC(=O)[C@H](CC(C)C)N(C)C(=O)CN(CCc2cccnc2)C(=O)[C@H](C)NC(=O)CN(Cc2ccccc2Cn2cccn2)C(=O)[C@H]2CCCN2C1=O	-6.77
CCCC[C@@H]1NC(=O)[C@H](CC(C)C)N(C)C(=O)CN(Cc2ccccc2)C(=O)[C@H](Cc2ccccc2)NC(=O)CN(CC)C(=O)[C@H]2CCCN2C1=O	-5.16
CCCC[C@@H]1NC(=O)[C@H](CC(C)C)N(C)C(=O)CN(CC2CCOCC2)C(=O)[C@H](Cc2ccccc2)NC(=O)CN(CCC)C(=O)[C@H]2CCCN2C1=O	-5.19
CCCC[C@@H]1NC(=O)[C@H](CC(C)C)N(C)C(=O)CN(CCc2cccnc2)C(=O)[C@H](CC(C)C)NC(=O)CN(CC(C)C)C(=O)[C@H]2CCCN2C1=O	-5.29

Extract of 2 entries:

| compound | PAMPA (log10 cm/s) |
|---|---|
| CCCC[C@@H]1NC(=O)[C@H](CC(C)C)N(C)C(=O)CN(CC2CCCCC2)C(=O)[C@H](CC(C)C)NC(=O)CN(Cc2ccc(Cl)cc2)C(=O)[C@H]2CCCN2C1=O | -7.10 |
| CCCC[C@@H]1NC(=O)[C@H](CC(C)C)N(C)C(=O)CN(CC2CCCCC2)C(=O)[C@H](Cc2ccccc2)NC(=O)CN(CC(C)C)C(=O)[C@H]2CCCN2C1=O | -6.82 |

Collected by the curators of CycPeptMPDB (Li et al. 2023) from Furukawa et al. 2016, doi:10.1021/acs.jmedchem.6b01246.